In publication PMC4900891 (Biochemistry, 2016):
Several values for one entry are separate records, joined by “and”; a condition that tells them apart may be missing. Equal values may be shown once. Square brackets hold non-standard residues; d marks the D form. Peptide text beside a SMILES is read from it. pY = N[C@@H](Cc1ccc(OP(=O)(O)O)cc1)C(=O)O

What was measured:
SHP2^F285S [1] = biological target: T1, SHP2^F285S (Homo sapiens, UniProt Q06124, F285S); experiment: Basal DiFMUP dephosphorylation kinetics, F285S; assay type: biochemical; conditions: substrate DiFMUP, basal (no peptide); 0.5 nM enzyme, Hepes pH 7.2
SHP2^F285S [2] = biological target: T1, SHP2^F285S; experiment: Phosphopeptide activation of SHP2; assay type: biochemical

Cc1cc(=O)oc2c(F)c(OP(=O)(O)O)c(F)cc12 [DiFMUP, 6,8-Difluoro-4-Methylumbelliferyl Phosphate]
kcat/KM (SHP2^F285S [1]): 14000 M⁻¹ s⁻¹ and 14300 M⁻¹ s⁻¹

CC[C@H](C)[C@H](NC(=O)[C@H](Cc1ccc(OP(=O)(O)O)cc1)NC(=O)[C@H](CC(N)=O)NC(=O)[C@H](CC(C)C)NC(=O)[C@@H](N)CO)C(=O)N[C@@H](CC(=O)O)C(=O)N[C@@H](CC(C)C)C(=O)N[C@@H](CC(=O)O)C(=O)N[C@@H](CC(C)C)C(=O)N[C@H](C(=O)N[C@@H](CCCCN)C(=O)O)C(C)C [PY1172] (H-SLN[pY]IDLDLVK-OH)
EC50 (SHP2^F285S [2]): 2000 nM

SLNY(p)IDLDLVK-dPEG8-LSTY(p)ASINFQK [PY1172-PEG-PY1222]
sensitivity to bisphosphorylated peptide (SHP2^F285S [2]; relative to SHP2^WT): intermediate
